The source of these data is PubChem BioAssay AID1259354 (Paczesny and Yang Labs, IUPUI and University of Michigan, 2018).

Sequences of proteins named here, by UniProt entry; tags and fusion partners are left off. A change or cut given only in a name is not applied to a line headed by its entry.
UniProt Q01638: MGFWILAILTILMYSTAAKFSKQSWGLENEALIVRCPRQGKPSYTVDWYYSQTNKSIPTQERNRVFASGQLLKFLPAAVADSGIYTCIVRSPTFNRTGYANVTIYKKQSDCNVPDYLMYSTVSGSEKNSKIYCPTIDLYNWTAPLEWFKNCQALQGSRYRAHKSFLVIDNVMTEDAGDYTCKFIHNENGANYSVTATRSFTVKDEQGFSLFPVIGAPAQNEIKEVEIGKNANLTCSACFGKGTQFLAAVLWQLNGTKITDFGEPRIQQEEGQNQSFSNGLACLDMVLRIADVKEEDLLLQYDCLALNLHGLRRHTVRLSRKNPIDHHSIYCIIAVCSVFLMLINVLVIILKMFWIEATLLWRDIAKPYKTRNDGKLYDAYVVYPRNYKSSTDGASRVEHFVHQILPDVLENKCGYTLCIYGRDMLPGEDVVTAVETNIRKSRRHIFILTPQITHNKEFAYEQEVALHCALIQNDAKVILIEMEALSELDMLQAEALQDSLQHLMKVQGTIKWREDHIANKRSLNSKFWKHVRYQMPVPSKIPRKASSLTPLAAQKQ

SMILES strings stand for the structures. Only a part is listed here, and it is no random draw. Records with an inconclusive call do not appear. The source made the active and inactive calls. Rule as the data show it: active = inhibition above about 30%; inconclusive = mostly about 10% to 28%; inactive = weaker than that.

For orientation: inhibition means how much of the control response was suppressed.

The assay addresses Interleukin-1 receptor-like 1 (Homo sapiens) (UniProt Q01638). The experiment in a line: inhibitors of human ST2 (IL1RL1) binding to IL-33, primary screen, biochemical, AlphaLISA (AID 1259354). As to conditions: AlphaLISA ST2-Fc/biotin-IL-33 interaction, 1 h; at 17 µM; stronger effect = higher value. On the technique in general: Alpha assays give light when donor and acceptor beads are brought close together.
For `O=[N+]([O-])c1cc2c(c([N+](=O)[O-])c1)-c1c(cc([N+](=O)[O-])cc1[N+](=O)[O-])C2=Cc1ccccc1O`, the inhibition is active: 44%. Consider `O=[N+]([O-])c1ccc(-n2ncc3c([N+](=O)[O-])cc([N+](=O)[O-])cc32)cc1`, for which the inhibition is active: 49%.
